The text below walks through data of paper PMC10362907.

The data set concerns NC(=O)C1=CN([C@@H]2O[C@H](COP(=O)(O)OP(=O)(O)OC[C@H]3O[C@@H](n4cnc5c(N)ncnc54)[C@H](O)[C@@H]3O)[C@@H](O)[C@H]2O)C=CC1. Description: purified protein. Particulars: 1 mM cyclohexanone, 50 mM Tris-Cl pH 9.0, 25 °C.

For “Ac CHMO (CHMO WT) (Acinetobacter johnsonii; H163Y/K326T/K349N/L143P/S208D)”, where the note is “variant DTNPY”, the Michaelis-Menten constant (Km) – broadly, the substrate concentration at which the rate is half of its maximum – is 2810 ± 210 µM; the kcat (in general, the number of substrate molecules converted per active site and unit of time at saturation) came out at 5.08 s⁻¹; the kcat/Km (usually the second-order rate constant that governs catalysis at low substrate concentration) worked out at 1810 M⁻¹ s⁻¹.

Regarding “Ac CHMO (CHMO WT) (Acinetobacter johnsonii; K326T/K349N/L143P/S208D)”, where the note is “variant DTNP”, the Km amounted to 2790 ± 430 µM, the kcat turned out to be 2.46 s⁻¹ and the kcat/Km was 880 M⁻¹ s⁻¹.
